# In US9629848B2, “Compounds that modulate autoimmunity and methods of using the same” (The Regents of the University of Colorado, a body corporate, priority 2011, dated 2017):
# Tested on: clone 5 T cell hybridoma (DQ8 restricted T cell that responds to insulin B:9-23)
# Test: T cell stimulation assay, clone 5 T cell hybridoma with insulin B:9-23 peptide
# Details: read-out: T cell stimulation Assay Clone 5 & B:9-23 (IC50); IL-2 in supernatant after overnight culture; < means lower concentrations have not been used
structure (smiles),measurement,value
[H]/N=C(\NCCBr)NN(O)O,IC50,< 100 nM
